# Tested on: serum antibodies
# Experiment: Immunization of rabbits with peptides 3 and 7, anti-peptide ELISA
# Type: in vivo, rabbit
# Conditions: two rabbits, mixture of peptides 3 and 7 (375 μg each), QuilA/DEAE Dextran/Montanide ISA 50V
row,Substance,Polyclonal sera against peptide from immunised rabbits
1,"H-KLLIHWASTRESGVPDR-OH [Peptide 3, Light CDR2 of human anti-p53 antibody with N-terminus specificity]",successfully isolated
2,"H-LLIYLGSTRASGVPDR-OH [Peptide 7, Light CDR2 of human anti-p53 antibody with central domain specificity]",successfully isolated

# — patent US20080241177A1 (priority 2003, published 2008)
